Assay results as given in PubChem BioAssay AID493232 (The Scripps Research Institute Molecular Screening Center, 2011).
The entries are a selection whose mix differs from that of the whole data set. Calls of active or inactive are those of the source. Cut-off read from the data, not from the text of the source: active = inhibition above about 17%; inactive = the rest.

Assay: CHO-K1 parental line HTRF response – cell-based, counter-screen for OX1R antagonist project (AID 493232);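 note: 0% = agonist challenge with vehicle and 100% = vehicle alone without agonist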
Conditions: parental CHO-K1 cells, HTRF counterscreen; at 6.6 µM; hits give high values

SMILES | inhibition
O=[N+]([O-])c1cc([N+](=O)[O-])c(Nc2ccccn2)c([N+](=O)[O-])c1 | active: 61.3%
O=[N+]([O-])c1cc([N+](=O)[O-])c(NCC2CCS(=O)(=O)C2)c([N+](=O)[O-])c1 (stereo not drawn) | active: 104%
O=[N+]([O-])c1cc([N+](=O)[O-])c(Nc2cccnc2)c([N+](=O)[O-])c1 | active: 62.2%
